In one test the target is KRAS G12D-SOS1 (Homo sapiens, UniProt P01116, G12D). The test is described as follows: Blocking of KRAS G12D-SOS1 protein binding (Cisbio KRAS-G12D/SOS1 Binding Assay Kit, time-resolved fluorescence). The conditions noted are these: read-out: G12D SOS1 biochemical IC50; KRAS G12D-GTP and SOS1 protein, signal ratio 665nm/620nm. An excerpt:
• 1. Experimental objective: The purpose of this test example is to test the ability of the compounds to block the binding of KRAS G12D and SOS1 proteins. • 2. Experimental reagents and instruments
The centrifuge (5810R) was purchased from Eppendorf; the pipette was purchased from Eppendorf or Rainin; and the microplate reader was purchased from BioTek (United States) with a model of SynergyH1 multifunctional microplate reader.
KRAS-G12D/SOS1 Binding Assay Kit was purchased from Cisbio, with a catalog number of 63ADK000CB17PEG; GTP was purchased from Sigma, with a catalog number of G8877; 384-well plate was purchased from Perkin Elmer, with a catalog number of 6007299.
The Diluent buffer in the kit was used to dilute the compound into 10× compound solution of different concentrations, and 2 uL was added to each well of the 384-well plate. […] The plate was read using the time-resolved fluorescence program of the Biotek Synergy H1 instrument to detect fluorescence values at emission wavelengths of 665 nm and 620 nm.
The signal ratio (665nm/620nm*10,000) was calculated, and the nonlinear fitting of the signal ratio and sample concentration was performed using a fourparameter equation in GraphPad Prism 6 to obtain the IC50 value.

Amino acid sequences for entries named in this document (tags omitted). Residues count along the entry.
UniProt P01116, 1-188 isoform 2: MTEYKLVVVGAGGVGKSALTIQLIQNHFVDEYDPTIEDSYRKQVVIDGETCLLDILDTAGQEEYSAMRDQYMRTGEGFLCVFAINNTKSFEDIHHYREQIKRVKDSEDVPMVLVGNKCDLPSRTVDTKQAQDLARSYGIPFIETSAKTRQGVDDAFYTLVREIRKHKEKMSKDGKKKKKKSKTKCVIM
UniProt P01116, 1-188 isoform 2 G12D: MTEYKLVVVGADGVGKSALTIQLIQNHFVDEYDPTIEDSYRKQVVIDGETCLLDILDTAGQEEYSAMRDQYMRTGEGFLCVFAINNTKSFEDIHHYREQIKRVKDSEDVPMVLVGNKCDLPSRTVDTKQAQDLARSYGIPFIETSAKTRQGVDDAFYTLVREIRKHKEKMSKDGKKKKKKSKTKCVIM

In another test the target is KRAS WT (Homo sapiens, UniProt P01116). The test is described as follows: KRAS WT biochemical assay (Table 1, no method of its own). The conditions noted are these: read-out: KRAS WT Biochemical IC50.
The subject of the next test is p-ERK in AsPC-1 cells. The test is described as follows: Inhibition of p-ERK in AsPC-1 cells (LANCE Ultra phospho-ERK1/2 kit). To be noted: read-out: AsPC-1_pERK IC50, 2 h with compound. How it is done:
1. Experimental objective: The inhibition activity of the example compounds on the phosphorylated ERK level in KRAS G12D mutant cells AsPC-1 was determined. 2. Experimental instruments: • 2.1 Instruments: Microplate reader (BioTek Synergy H1); Pipette (Eppendorf & Rainin) • 2.2 Reagents: Phosphorylated ERK1/2 (T202-Y204) LANCE Ultra Cellular Detection Kit was purchased from PerkinElmer, with a catalog number of TRF4000M; DMEM was purchased from Gibco, with a catalog number of 11995065; FBS was purchased from Gibco, with a catalog number of 10091148; PBS was purchased from Gibco, with a catalog number of 10010023; trypsin was purchased from Gibco, with a catalog number of 25200056; cell culture plates were purchased from Corning Company, with a catalog number of 3610; White opaque OptiPlate™-384 plates were purchased from PerkinElmer, with a catalog number of 6007290. 3. […] The plate was read using BioTek Synergy H1 and the signal values at the emission wavelengths of 620 nm and 665 nm were detected using a time-resolved fluorescence program. […] Experimental data processing method: The ratio of the signal values at the emission wavelengths of 665 nm and 620 nm was calculated, and the inhibition rate was calculated using the ratio. […]
In general terms: TR-FRET usually uses a lanthanide donor and a delayed reading to cut background.

A further test deals with GP2D. Briefly: Inhibition of proliferation of KRAS G12D mutant tumor cell line GP2D (CellTiter-Glo). The conditions noted are these: read-out: GP2D IC50, about 72 h. In general terms: ATP-based viability assays read luminescence as a measure of living cells.

The results in this text go back to patent EP4635958A1, “PYRIMIDINE-CONTAINING POLYCYCLIC DERIVATIVE INHIBITOR, AND PREPARATION METHOD THEREFOR AND USE THEREOF” (Shanghai Hansoh Biomedical Co., Ltd., priority 2022, dated 2024).

Structures are written as SMILES.

As a reminder, the IC50 is the concentration at which inhibition is half-maximal.

Consider `C#Cc1c(F)ccc2cc(O)cc(-c3nc4c5c(nc(OCC6(CN7CC8CCC7CC8=C(F)F)CC6)nc5c3F)N3C[C@H]5CC[C@H](N5)[C@H]3CO4)c12` (single isomer, unassigned) [Example 3-1], for which the IC50 at KRAS G12D-SOS1 was determined as 2.2 nM; at KRAS WT it was 62 nM; in the test on p-ERK in AsPC-1 cells, 2 nM; in the test with GP2D, 1 nM.
Taken in the same sequence, the figures for `C#Cc1c(F)ccc2cc(O)cc(-c3nc4c5c(nc(OCC6(CN7CC8CCC7CC8=C(F)F)CC6)nc5c3F)N3C[C@H]5CC[C@H](N5)[C@H]3CO4)c12` (single isomer, unassigned) [Example 3-2] were 3.9 nM, 40 nM, 1.6 nM and 1.2 nM.
